The list shows a part of the results, in another mix than the full data. Some results for these compounds are left out of this collection, so the calls shown say nothing about other tests. Active and inactive are the calls of the source. Cut-off read from the data, not from the text of the source: active = inhibition above about 40%; inconclusive = no clear call, values can overlap the other calls; inactive = below that.

Chains of the proteins cited; added tags and fusions are not shown.
UniProt P10415, whole entry: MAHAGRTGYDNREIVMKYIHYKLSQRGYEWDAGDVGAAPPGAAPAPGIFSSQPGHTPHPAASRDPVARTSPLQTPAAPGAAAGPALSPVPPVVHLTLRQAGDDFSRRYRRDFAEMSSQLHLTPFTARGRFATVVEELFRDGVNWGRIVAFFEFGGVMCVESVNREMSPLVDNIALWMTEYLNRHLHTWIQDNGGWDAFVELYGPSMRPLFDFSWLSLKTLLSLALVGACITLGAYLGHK

This experiment deals with Apoptosis regulator Bcl-2 (Homo sapiens) (UniProt P10415). Kind of experiment: Bcl-2 and Bim peptide interaction disruptors – biochemical, multiplexed, human Bcl-2 family, primary screen (AID 950).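 Note: 0% = no compound wells with probe peptide and 100% = reference peptide inhibitor.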 Particulars: Bead-based flow cytometry, Bim peptide-Bcl-2 binding; at 10 µM; stronger effect = higher value. On the technique in general: A flow cytometer gives signals particle by particle.
As to `CC(C)N1C(=O)CC2(CCN(CCOC(=O)C(O)(c3ccccc3)c3ccccc3)CC2)C1=O`, the inhibition – broadly, the drop in the measured response relative to a control, in per cent – was inactive: 2%.
Take `O=C(NCC1(N2CCCCC2)CCCCC1)c1cc([N+](=O)[O-])ccc1Cl`: the inhibition is inactive: -1%.
As to `CCN1CCCC(OC(=O)C2(O)c3ccccc3C=Cc3ccccc32)C1` (centres undefined), the inhibition was inactive: 1%.
As for `C=CCN1CCN(CCOC(=O)C(O)(c2ccccc2)c2ccccc2)CC1`, the inhibition is inactive: 0%.
Take `CN(C)C1CCCC1OC(=O)C(O)(c1ccccc1)c1ccccc1` (centres undefined): the inhibition is inactive: -7%.
For `Cc1ccccc1C(=O)NCC1(N2CCCCC2)CCCCC1`, the inhibition is inactive: -1%.
For the compound `COc1cccc(C(=O)NCC2(N3CCCCC3)CCCCC2)c1`, the inhibition is inactive: 0%.
Next, `CN(C)c1cccc(C(=O)NCC2(N(C)C)CCCCC2)c1`: inactive: -7%.
For the compound `O=C(OC1CN2CCC1CC2)C(CO)(c1ccccc1)c1ccccc1` (centres undefined), the inhibition is inactive: -12%.

The values are drawn from PubChem BioAssay AID950 (NMMLSC, 2007).
